Target: Orexin/Hypocretin receptor type 1 (Homo sapiens, UniProt O43613)
Test: The intrinsic orexin receptor antagonist activity of a compound which may be used in the present invention may be determined by these assays.

By UniProt entry, the sequences of proteins in these tests, tags left out.
UniProt O43613, whole entry: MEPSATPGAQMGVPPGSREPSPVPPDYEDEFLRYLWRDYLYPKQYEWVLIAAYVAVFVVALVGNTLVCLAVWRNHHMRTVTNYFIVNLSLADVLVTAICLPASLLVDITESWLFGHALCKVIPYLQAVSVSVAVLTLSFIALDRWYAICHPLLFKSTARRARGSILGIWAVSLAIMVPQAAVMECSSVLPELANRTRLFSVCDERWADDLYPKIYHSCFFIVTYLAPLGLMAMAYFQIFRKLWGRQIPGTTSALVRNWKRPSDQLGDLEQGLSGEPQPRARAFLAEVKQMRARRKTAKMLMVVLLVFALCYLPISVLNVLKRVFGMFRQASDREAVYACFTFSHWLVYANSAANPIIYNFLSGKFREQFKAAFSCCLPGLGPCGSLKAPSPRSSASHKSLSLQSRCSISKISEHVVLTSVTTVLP

In the case of `COc1ccc(C(=O)N2C[C@H](Oc3nccc(C#N)c3C)CC[C@H]2C)c(C2CC2)n1`, the Ki is reported as 1890 nM.

In the case of `COc1ccc(C(=O)N2C[C@H](Oc3nccc(C#N)c3C)CC[C@H]2C)c(-c2ccncc2)n1`, the Ki is reported as 5760 nM.

In the case of `COc1ccc(C(=O)N2C[C@H](Oc3nccc(C#N)c3C)CC[C@H]2C)c(-n2nccn2)c1`, the Ki is reported as 1170 nM.

`Cc1c(C#N)ccnc1O[C@@H]1CC[C@@H](C)N(C(=O)c2ccccc2OC(F)(F)F)C1` gave a Ki of 757 nM.

Work on `Cc1c(C#N)ccnc1O[C@@H]1CC[C@@H](C)N(C(=O)c2ccncc2-c2ccccc2)C1` yielded a Ki of 1610 nM.

`CSc1ccc(C(=O)N2C[C@H](Oc3nccc(C#N)c3C)CC[C@H]2C)c(-n2nccn2)n1` gave a Ki of 1450 nM.

Work on `Cc1c(C#N)ccnc1O[C@@H]1CC[C@@H](C)N(C(=O)C2=C(c3ccccn3)CCC2)C1` yielded a Ki of 165 nM.

Work on `COc1ccc(C(=O)N2C[C@H](Oc3nccc(C#N)c3C)CC[C@H]2C)c(C2CCC2)n1` yielded a Ki of 911 nM.

With `Cc1c(C#N)ccnc1O[C@@H]1CC[C@@H](C)N(C(=O)c2cccc(F)c2-n2nccn2)C1` the Ki was 269 nM.

`COc1c(C#N)ccnc1O[C@@H]1CC[C@@H](C)N(C(=O)c2ccc(F)cc2-n2nccn2)C1` was tested, and the Ki was 442 nM.

In the case of `Cc1c(C#N)ccnc1O[C@@H]1CC[C@@H](C)N(C(=O)c2ccccc2-c2cscn2)C1`, the Ki is reported as 150 nM.

`Cc1c(C#N)ccnc1O[C@@H]1CC[C@@H](C)N(C(=O)c2sncc2-c2ccccc2)C1` showed a Ki of 1480 nM.

Molecule `Cc1c(C#N)ccnc1O[C@@H]1CC[C@@H](C)N(C(=O)c2nscc2-c2ccccc2)C1` has a Ki of 357 nM.

For `Cc1c(C#N)ccnc1O[C@@H]1CC[C@@H](C)N(C(=O)c2c(F)cccc2-c2nccs2)C1`, the Ki was 72 nM.

In the case of `Cc1c(C#N)ccnc1O[C@@H]1CC[C@@H](C)N(C(=O)c2ccccc2OC(C)C)C1`, the Ki is reported as 605 nM.

`Cc1c(C#N)ccnc1O[C@@H]1CC[C@@H](C)N(C(=O)c2nscc2-n2nccn2)C1` gave a Ki of 4300 nM.

`Cc1c(C#N)ccnc1O[C@@H]1CC[C@@H](C)N(C(=O)c2ccccc2-c2ncco2)C1` showed a Ki of 182 nM.

`CCc1c(C#N)ccnc1O[C@@H]1CC[C@@H](C)N(C(=O)c2ccccc2-n2nccn2)C1` was tested, and the Ki was 58 nM.

With `Cc1c(C#N)ccnc1O[C@@H]1CC[C@@H](C)N(C(=O)c2ccc(Cl)cc2-n2nccn2)C1` the Ki was 144 nM.

In the case of `Cc1c(C#N)ccnc1O[C@@H]1CC[C@@H](C)N(C(=O)c2cc(F)ccc2-n2nccn2)C1`, the Ki is reported as 296 nM.

Molecule `Cc1c(C#N)ccnc1O[C@@H]1CC[C@@H](C)N(C(=O)c2ccccc2-c2nccs2)C1` has a Ki of 64 nM.

Reference: ChEMBL document CHEMBL5725216, “2-pyridyloxy-3-substituted-4-nitrile orexin receptor antagonists” (2017)
